Earlier results on one substance are cited in PMC8232766, “Chemical Composition and Immunomodulatory Activity of Essential Oils from Rhododendron albiflorum” (Molecules, 2021).

The test system of series [1] is human neutrophils. Further details: method as in PMID 27586050, PMID 25959257. The following applies: direct effect; previous studies; cited from earlier work.
In series [2] the test system is human neutrophils. The following applies: previous studies; cited from earlier work.

As to (E/Z)-β-ocimene, the “Activation of neutrophil Ca2+ mobilization” value with human neutrophils [1] is reported as “no activating effects”. In the series on human neutrophils [2], the “Inhibition of agonist-induced neutrophil Ca2+ mobilization” value was “no inhibitory effect”.
